Literature values as cited in US20080154230A1 (priority 2006, published 2008).

Conditions: in vivo

In the case of “Starch Hydroxypropyltriammonium Chloride [SENSOMER® CI-50]”, the “responses of subjects in human repeated-insult study” value is listed as “no clinically significant responses”.
